Source: PMC8752127

Biological target: TTBK2^1074−1087 peptide (synthetic) (human) (UniProt Q6IQ55)
Test: ITC; 25°C, PBS; CEP164 1-109 protein in the syringe, TTBK2 1074-1087 peptide in the cell; one set of binding sites model

| Substance | dH [kcal/mol] | stoichiometry N |
| --- | --- | --- |
| CEP164^1−109 (N-terminal domain of human CEP164), untagged (from UniProt Q9UPV0 1-109) (domain or fragment) | -17 | 0.7 |
| CEP164^1−109 Q11P, untagged (from UniProt Q9UPV0 1-109) (domain or fragment) | -9 | 1 |
| CEP164^1−109 S82A, untagged (from UniProt Q9UPV0 1-109) (domain or fragment) | -14 | 0.7 |
| CEP164^19−109 (CEP164-NTD Δ1–18), untagged (from UniProt Q9UPV0 19-109) (domain or fragment) | -10 | 1 |
